{"source": "patent US8039586B1", "about": "“Cerebral organic anion transporter and its gene” (J-Pharma Co., Ltd., priority 1998, dated 2011)", "molecular_target": "T1, rat OAT3 (rk1411) (Rattus norvegicus, UniProt Q9R1U7)", "T1 construct": "cRNA (RNA complementary to cDNA) was prepared in vitro from the plasmid carrying the clone (rk1411); expressed in transfected cells; host or cells: Xenopus oocytes injected with rk1411 cRNA", "T1 sequence (Q9R1U7 1-536)": "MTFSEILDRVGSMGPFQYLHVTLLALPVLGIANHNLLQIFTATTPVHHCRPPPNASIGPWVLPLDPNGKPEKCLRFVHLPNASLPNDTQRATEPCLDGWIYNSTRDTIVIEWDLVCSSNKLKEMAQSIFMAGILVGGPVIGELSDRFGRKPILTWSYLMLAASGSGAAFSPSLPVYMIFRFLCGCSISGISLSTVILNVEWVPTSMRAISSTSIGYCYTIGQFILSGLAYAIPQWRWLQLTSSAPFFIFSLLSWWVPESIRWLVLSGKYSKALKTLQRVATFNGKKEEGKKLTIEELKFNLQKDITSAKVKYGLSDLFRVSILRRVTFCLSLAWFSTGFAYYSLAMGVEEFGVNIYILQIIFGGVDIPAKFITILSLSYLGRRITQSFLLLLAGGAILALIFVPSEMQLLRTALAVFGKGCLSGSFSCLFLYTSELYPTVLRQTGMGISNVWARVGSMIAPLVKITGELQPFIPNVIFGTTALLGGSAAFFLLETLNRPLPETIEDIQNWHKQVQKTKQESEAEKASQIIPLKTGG", "test": "Inhibition of 3H-estrone sulfate uptake in oocyte injected with rk1411 cRNA", "format": "cell-based", "conditions": "1 mM unlabeled compound; Xenopus oocyte; FIG. 3"}
{"molecule": "C=C[C@H]1C[N@@]2CC[C@H]1C[C@@H]2[C@@H](O)c1ccnc2ccc(OC)cc12", "note": "[quinidine]", "values": [{"measurement": "inhibition of 3H-estrone sulfate transport with rk1411", "result": "never exerted any such inhibitory action"}]}
